Test results: article PMC3003327

Target: actin filaments (F-actin) of Acanthamoeba castellani cytoplasmic actin (Acanthamoeba castellani)
Assay: single-filament TIRF capping-rate assay

fold reduction of kon by VASP in 100 mM KCl: 2.7 fold | kon with 50 nM VASP: 1.9e+06 M⁻¹ s⁻¹
Substance: recombinant mouse capping protein α1β2 (MmCP α1β2) (from UniProt P47753;P47757-2) (complex)
